Binding of CDR-mutated scFvs to a peptide of the spike HR2 region

Reference: Engelhart et al. 2022, doi:10.1038/s41597-022-01779-4. File: FLAb, binding data.

All variants were tested on one target, the spike HR2 peptide PDVDLGDISGINAS (SARS-CoV-2).

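Library AAYL52 holds single substitutions and randomly drawn double and triple substitutions in the CDRs. AlphaSeq pools MATa yeast showing the antibodies with MATalpha yeast showing the peptide. Binding brings cells together so that they mate, and sequencing counts the barcode pairs among the diploids. Scores were corrected for input abundance and mapped to Kd with protein pairs of known affinity run in the same pool. The assay was run in three technical replicates.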

Parent: Ab-95, a human scFv built as VH, a 15-residue (Gly4Ser)3 linker, VL. Only the CDRs of the light chain vary.
VH: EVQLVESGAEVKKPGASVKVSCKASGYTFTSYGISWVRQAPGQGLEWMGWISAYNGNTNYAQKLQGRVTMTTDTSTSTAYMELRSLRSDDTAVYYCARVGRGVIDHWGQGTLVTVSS
VL: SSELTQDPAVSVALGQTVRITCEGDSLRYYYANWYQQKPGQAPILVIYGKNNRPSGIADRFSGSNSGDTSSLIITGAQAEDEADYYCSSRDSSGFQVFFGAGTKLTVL

Substitutions are numbered in sequence along the VL above, starting at 1 (not Kabat).
Numbers give log10(Kd / nM), so 0 is 1 nM and 3 is 1 µM. Smaller is tighter.
"nd" means that the variant was in the library but no mating with the target was seen in that replicate; the authors take this as a sign of poor binding, and no number exists.

{"changes": "E23W+Y29C+N51Q", "log10 Kd (nM) by replicate": "nd nd nd", "control signals": "1 of 9 (4.89)"}
{"changes": "N52I+S88P+D91Q", "log10 Kd (nM) by replicate": "5.05 nd nd", "control signals": "1 of 9 (3.43)"}
{"changes": "L27E+S88P+D91L", "log10 Kd (nM) by replicate": "nd 4.00 nd", "control signals": "1 of 9 (2.81)"}
{"changes": "R28C+G49F+Q96N", "log10 Kd (nM) by replicate": "nd nd nd", "control signals": "3 of 9 (3.94)"}
{"changes": "D25R+R28C+D91R", "log10 Kd (nM) by replicate": "4.24 4.28 nd", "control signals": "5 of 9 (3.91)"}
{"changes": "D25W+K50A", "log10 Kd (nM) by replicate": "nd 2.74 3.05", "control signals": "0 of 9"}
{"changes": "N51V+G94A+F95N", "log10 Kd (nM) by replicate": "4.91 nd nd", "control signals": "3 of 9 (3.58)"}
{"changes": "Y31A+K50P+S92G", "log10 Kd (nM) by replicate": "1.96 1.80 1.68", "control signals": "2 of 9 (4.68)"}
{"changes": "E23P+Y29T+N52V", "log10 Kd (nM) by replicate": "3.22 5.10 2.82", "control signals": "8 of 9 (3.76)"}
{"changes": "N33A+R90L+F95I", "log10 Kd (nM) by replicate": "3.59 nd nd", "control signals": "5 of 9 (4.28)"}
{"changes": "N52Q+D91H+S92F", "log10 Kd (nM) by replicate": "2.56 2.67 2.27", "control signals": "2 of 9 (3.85)"}
{"changes": "A32H+P54C+R90D", "log10 Kd (nM) by replicate": "nd nd nd", "control signals": "3 of 9 (3.15)"}
{"changes": "R28V+G49Y+S93H", "log10 Kd (nM) by replicate": "3.08 4.16 4.30", "control signals": "4 of 9 (3.68)"}
{"changes": "E23Y+A32Q+N51Q", "log10 Kd (nM) by replicate": "nd 5.78 nd", "control signals": "4 of 9 (4.10)"}
{"changes": "D25K+K50L+P54L", "log10 Kd (nM) by replicate": "4.09 nd nd", "control signals": "3 of 9 (4.16)"}
{"changes": "G49V+S88A+S93Q", "log10 Kd (nM) by replicate": "nd nd nd", "control signals": "2 of 9 (3.36)"}
{"changes": "G49H+K50H", "log10 Kd (nM) by replicate": "3.24 2.88 2.70", "control signals": "3 of 9 (3.61)"}
{"changes": "E23V+N52D", "log10 Kd (nM) by replicate": "2.57 2.16 2.16", "control signals": "1 of 9 (3.13)"}
{"changes": "P54K+S92G+S93Q", "log10 Kd (nM) by replicate": "5.20 nd nd", "control signals": "2 of 9 (3.35)"}
{"changes": "S88I+G94K+Q96A", "log10 Kd (nM) by replicate": "2.42 3.04 2.83", "control signals": "4 of 9 (4.64)"}
{"changes": "N52A+R53F", "log10 Kd (nM) by replicate": "3.21 5.47 nd", "control signals": "2 of 9 (4.11)"}
{"changes": "L27N+K50Q+G94W", "log10 Kd (nM) by replicate": "nd nd 4.63", "control signals": "2 of 9 (4.07)"}

The first 2 variants above that were never detected:

| changes | log10 Kd (nM) by replicate | control signals |
|---|---|---|
| E23W+Y29C+N51Q | nd nd nd | 1 of 9 (4.89) |
| R28C+G49F+Q96N | nd nd nd | 3 of 9 (3.94) |

Empty control strains, which show no peptide, gave a signal in 28% of pairings with library AAYL52; the median was 3.91 and 95% of these signals were weaker than 2.90. No background was subtracted. The control count says in how many pairings with the empty strains this scFv gave a signal, with their mean in brackets.
Parent in this assay: reference entry 2.31, copy in this library 2.25.